Literature values in patent US20240285642A1, “EGFR INHIBITOR FOR THE TREATMENT OF HEAD AND NECK CANCER” (NATCO PHARMA LIMITED, priority 2021, published 2024).

Test system: R/M HNSCC
Settings: combined with platinum-based chemotherapy; cited from earlier work

For “cetuximab: approved monoclonal antibody, EGFR inhibitor”, the ORR is given as 35.6%.
